The structures appear in SMILES notation. Structures can show the parent of a compound that is named as a salt.

The results in this text go back to patent US9156811B2 (priority 2008, dated 2015).

The subject of the assay is Trypanosome (T. brucei brucei). The experiment in a line: In-vitro antitrypanosomal efficacy assay (cell growth, resazurin).

With `Cc1nn(C)c(C)c1N[S+](=O)([O-])c1ccc(-c2ccnc(N3CCNCC3)c2)cc1Cl` [DDD86206, 2-Chloro-4-(2-piperazin-1-yl-pyridin-4-yl)-N-(1,3,5-trimethyl-1H-pyrazol-4-yl)-benzenesulfonamide], the “ED50 (μM) T. brucei” value amounted to 0.001 µM.

In the case of `Cc1nn(C)c(C)c1N[S+](=O)([O-])c1c(Cl)cc(-c2cccc(N3CCNCC3)c2)cc1Cl` [DDD86479, 3,5-Dichloro-3′-piperazin-1-yl-biphenyl-4-sulfonic acid (1,3,5-trimethyl-1H-pyrazol-4-yl)-amide], the “ED50 (μM) T. brucei” value turned out to be 0.005 µM.

As for `Cc1ncccc1N[S+](=O)([O-])c1c(Cl)cc(-c2ccnc(N3CCNCC3)c2)cc1Cl` [DDD86480, 2,6-Dichloro-N-(2-methyl-pyridin-3-yl)-4-(2-piperazin-1-yl-pyridin-4-yl)-benzenesulfonamide], the “ED50 (μM) T. brucei” value was 0.33 µM.

Consider `Cc1c(N[S+](=O)([O-])c2c(Cl)cc(-c3ccnc(N4CCNCC4)c3)cc2Cl)c(CC(C)C)nn1C` [DDD86481, 2,6-Dichloro-N-(3-isobutyl-1,5-dimethyl-1H-pyrazol-4-yl)-4-(2-piperazin-1-yl-pyridin-4-yl)-benzenesulfonamide], for which the “ED50 (μM) T. brucei” value was 0.002 µM.

Take `Cc1nn(C)c(C)c1N[S+](=O)([O-])c1ccc(-c2cccc(CCN3CCN(C)CC3)c2)cc1` [DDD87753, 3′-[2-(4-Methyl-piperazin-1-yl)-ethyl]biphenyl-4-sulfonic acid (1,3,5-trimethyl-1H-pyrazol-4-yl)-amide]: the “ED50 (μM) T. brucei” value is more than 1 µM.

As for `Cc1nn(C)c(C)c1N[S+](=O)([O-])c1ccc(-c2ccnc(N3CCCNCC3)c2)cc1` [DDD87767, 4-(2-[1,4]-Diazepan-1-yl-pyridin-4-yl)-N-(1,3,5-trimethyl-1H-pyrazol-4-yl)-benzenesulfonamide], the “ED50 (μM) T. brucei” value turned out to be 0.003 µM.

Consider `Cc1nn(C)c(C)c1N[S+](=O)([O-])c1cc(F)c(-c2ccnc(N3CCNCC3)c2)cc1F` [DDD87997, 2,5-Difluoro-4-(2-piperazin-1-yl-pyridin-4-yl)-N-(1,3,5-trimethyl-1H-pyrazol-4-yl)-benzenesulfonamide], for which the “ED50 (μM) T. brucei” value was 0.003 µM.

For `CCN(CC)Cc1cccc(-c2cc(Cl)c([S+](=O)([O-])Nc3c(C)nn(C)c3C)c(Cl)c2)c1` [DDD88007, 3,5-Dichloro-3′-diethylaminomethyl-biphenyl-4-sulfonic acid (1,3,5-trimethyl-1H-pyrazol-4-yl)-amide], the “ED50 (μM) T. brucei” value worked out at 0.08 µM.

For the compound `Cc1cc(-c2ccnc(N3CCNCC3)c2)ccc1[S+](=O)([O-])Nc1c(C)nn(C)c1C` [DDD88186, 2-Methyl-4-(2-piperazin-1-yl-pyridin-4-yl)-N-(1,3,5-trimethyl-1H-pyrazol-4-yl)-benzenesulfonamide], the “ED50 (μM) T. brucei” value was 0.003 µM.

On to `Cc1nn(C)c(C)c1N[S+](=O)([O-])c1ccc(-c2ccnc(N3CCNCC3)c2)cc1F` [DDD88188, 2-Fluoro-4-(2-piperazin-1-yl-pyridin-4-yl)-N-(1,3,5-trimethyl-1H-pyrazol-4-yl)-benzenesulfonamide], for which the “ED50 (μM) T. brucei” value came out at 0.005 µM.

Turning to `Cc1c(N[S+](=O)([O-])c2ccc(-c3ccc4c(c3)CNCCC4)cc2)c(CC(C)C)nn1C` [DDD100798, N-(3-isobutyl-1,5-dimethyl-1H-pyrazol-4-yl)-4-(2,3,4,5-tetrahydro-1H-benzo[c]azepin-8-yl)benzenesulfonamide Hydrochloride], the “ED50 (μM) T. brucei” value came out at 0.006 µM.

With `Cc1c(N[S+](=O)([O-])c2ccc(-c3ccc4c(c3)CN(C)CCC4)cc2)c(CC(C)C)nn1C` [DDD100868, N-(3-isobutyl-1,5-dimethyl-1H-pyrazol-4-yl)-4-(2-methyl-2,3,4,5-tetrahydro-1H-benzo[c]azepin-8-yl)benzenesulfonamide Hydrochloride], the “ED50 (μM) T. brucei” value was 0.0009 µM.
